According to US10654873B2, “Cytotoxic agents and conjugates thereof” (priority 2016, dated 2020):

Tested on: JIMT-1 cells (breast carcinoma)
Assay: JIMT-1 mouse xenograft study
Type: in vivo
Conditions: single dose 30 mg/kg i.v. bolus, Day 14 post treatment, NMRI nude mice

With “Kadcyla®: commercially-available ADC produced using an SMCC linker with a DM1 maytansinoid payload” the “mean tumour volume at Day 14” value was 165 mm^3.
